Experimental data taken from ChEMBL document CHEMBL5230100, “Novel quinazoline-based EGFR kinase inhibitors: A review focussing on SAR and molecular docking studies (2015-2019)” (Eur J Med Chem, 2020).

By UniProt entry, the sequences of proteins in these tests, tags left out.
UniProt P00533, whole entry: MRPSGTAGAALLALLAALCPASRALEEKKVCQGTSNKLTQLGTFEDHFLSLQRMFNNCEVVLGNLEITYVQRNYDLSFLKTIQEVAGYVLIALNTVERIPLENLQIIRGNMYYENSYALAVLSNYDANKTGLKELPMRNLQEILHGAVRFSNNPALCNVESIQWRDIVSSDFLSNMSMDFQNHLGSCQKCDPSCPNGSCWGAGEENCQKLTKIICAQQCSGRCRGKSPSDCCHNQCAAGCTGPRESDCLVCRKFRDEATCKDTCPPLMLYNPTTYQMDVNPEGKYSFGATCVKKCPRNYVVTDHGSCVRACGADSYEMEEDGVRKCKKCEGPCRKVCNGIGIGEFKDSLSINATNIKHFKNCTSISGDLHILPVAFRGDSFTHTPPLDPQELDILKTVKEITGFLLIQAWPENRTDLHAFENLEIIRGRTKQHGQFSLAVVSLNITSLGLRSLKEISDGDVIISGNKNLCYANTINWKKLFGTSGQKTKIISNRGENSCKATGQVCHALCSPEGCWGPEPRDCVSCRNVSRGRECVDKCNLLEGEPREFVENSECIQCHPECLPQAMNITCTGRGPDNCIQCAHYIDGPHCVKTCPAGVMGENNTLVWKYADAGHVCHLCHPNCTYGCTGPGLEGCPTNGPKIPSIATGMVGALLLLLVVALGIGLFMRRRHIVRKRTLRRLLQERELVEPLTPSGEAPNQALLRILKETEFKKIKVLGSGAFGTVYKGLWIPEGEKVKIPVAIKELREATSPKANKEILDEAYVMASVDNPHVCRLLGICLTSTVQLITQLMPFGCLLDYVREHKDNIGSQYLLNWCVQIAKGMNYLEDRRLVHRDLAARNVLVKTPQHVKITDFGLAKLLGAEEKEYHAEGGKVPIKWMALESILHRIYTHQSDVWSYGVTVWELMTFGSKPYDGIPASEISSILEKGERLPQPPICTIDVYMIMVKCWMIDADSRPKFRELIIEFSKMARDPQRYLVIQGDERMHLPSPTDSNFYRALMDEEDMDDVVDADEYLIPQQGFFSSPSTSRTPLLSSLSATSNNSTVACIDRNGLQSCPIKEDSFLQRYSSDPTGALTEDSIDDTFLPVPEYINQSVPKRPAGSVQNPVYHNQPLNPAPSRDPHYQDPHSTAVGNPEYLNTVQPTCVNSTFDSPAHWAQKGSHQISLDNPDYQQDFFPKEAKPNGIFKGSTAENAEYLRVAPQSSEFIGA

Target: Epidermal growth factor receptor (Homo sapiens, UniProt P00533)

Work on C=CC(=O)Nc1ccccc1Nc1ncnc2cc(OC)c(OCCN3CCOCC3)cc12 yielded an IC50 of 24.4 nM.
